Values quoted from earlier work, collected in patent US12370233B2, “Depot systems comprising glatiramer acetate” (MAPI PHARMA LTD., priority 2016, dated 2025).

Details: as reported by Rotstein et al., JAMA Neurol., 2015

B1: peginterferon beta-la (protein, UniProt P01574 22-187, looked up)
Interferon beta: MSYNLLGFLQRSSNFQCQKLLWQLNGRLEYCLKDRMNFDIPEEIKQLQQFQKEDAALTIYEMLQNIFAIFRQDSSSTGWNETIVENLLANVYHQINHLKTVLEEKLEKEDFTRGKLMSSLHLKRYYGRILHYLKAKEYSHCAWTIVRVEILRNFYFINRLTGYLRN
modifications: PEGylated (peginterferon beta-1a)
notes: approved therapy for relapsing remitting MS
For B1, the “NEDA at one year” value is listed as 34%.
